Results reported in PMC3563642, “MERTK Interactions with SH2-Domain Proteins in the Retinal Pigment Epithelium” (PLoS ONE, 2013).

Target: T1, 6xHis-rMERTK(571–999), full-length human MERTK cytoplasmic domain (human, UniProt Q12866 571-999, autophosphorylated on tyrosine (incubated with ATP/MgCl2); sites Y749, Y753, Y754 were mapped on rMERTK571–864, not on this construct)
T1 construct: Expressed from the pET28a-LIC vector; also called MERTK intracellular domain; source: E. coli BL21 DE3 Gold, purified (Ni2+-NTA, Sephacryl S-200 HR), autophosphorylated with 10 mM ATP, 10 mM MgCl2
T1 sequence (looked up): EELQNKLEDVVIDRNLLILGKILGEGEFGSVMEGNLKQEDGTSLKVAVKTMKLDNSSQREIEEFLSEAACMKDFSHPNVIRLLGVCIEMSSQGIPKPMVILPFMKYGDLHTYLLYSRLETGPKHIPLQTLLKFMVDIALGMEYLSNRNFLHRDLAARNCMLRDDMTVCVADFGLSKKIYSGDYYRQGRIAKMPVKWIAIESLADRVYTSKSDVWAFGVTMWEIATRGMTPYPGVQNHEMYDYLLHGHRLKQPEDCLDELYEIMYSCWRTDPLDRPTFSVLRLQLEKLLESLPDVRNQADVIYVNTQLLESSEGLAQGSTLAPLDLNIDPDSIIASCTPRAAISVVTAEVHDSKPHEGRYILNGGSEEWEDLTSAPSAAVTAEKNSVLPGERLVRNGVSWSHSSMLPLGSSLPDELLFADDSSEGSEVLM
Test: pull-down; Ni2+-NTA pull down: GST-rSH2-domain protein (10 µg) incubated with autophosphorylated 6xHis-rMERTK571–999 (10 µg) in 50 mM NaH2PO4, 300 mM NaCl, 10 mM imidazole, 0.1 µM PMSF, 1 h at 4°C, then Ni2+-NTA resin 0.5 h; washes with 50 mM imidazole, elution with 500 mM imidazole; Coomassie-stained SDS gels; negative control omits rMERTK
Settings: both partners purified

binding result: binds
B1: GRB2 GST-SH2 domain fusion protein (domain or fragment, human, UniProt P62993 60-152, looked up)
chain: WFFGKIPRAKAEEMLSKQRHDGAFLIRESESAPGDFSLSVKFGNDVQHFKVLRDGAGKYFLWVVKFNSLNELVDYHRSTSVSRNQQIFLRDIE
notes: pGEX2T construct from a library of SH2 domains; also called recombinant GRB2; rSH2-domain of GRB2; source: E. coli BL21 DE3 Gold, purified (glutathione-agarose, Sephacryl S-200 HR)
